From publication PMC9293779, “Elucidation of binding preferences of YEATS domains to site-specific acetylated nucleosome core particles” (The Journal of Biological Chemistry, 2022)

Target: T1, AF9-YEATS domain (residues 1–138) for X-ray analysis and ITC (human, UniProt P42568 1-138)
T1 construct: AF9 YEATS domain, human, residues 1–138; cloned in the pCR2.1 vector encoding GST and the polyhistidine tag; source: purified (HisTrap HP, Superdex 200)
T1 sequence (looked up): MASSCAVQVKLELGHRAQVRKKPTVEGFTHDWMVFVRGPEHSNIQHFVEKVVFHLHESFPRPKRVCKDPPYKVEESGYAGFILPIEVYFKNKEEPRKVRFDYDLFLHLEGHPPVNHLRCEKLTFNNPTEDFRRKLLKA
Assay: ITC; protein (100 μM) in the cell, peptide (1 mM) in the syringe; 15 °C; 20 mM Tris-HCl pH 7.6, 500 mM NaCl; single binding site model
Settings: both partners purified

B1: K9-acetylated H3 (1–19) peptide (peptide, UniProt P68431 2-20, looked up)
peptide: ARTKQTARKSTGGKAPRKQ
modifications: acetyl-lysine at K9
notes: histone H3, residues 1–19; also called K9-acetylated H3 peptide
Kd: 7 µM
